# Apparent affinities of Ab-14 variants for a coronavirus HR2 peptide

Values reported by Li et al. 2023, doi:10.1038/s41467-023-39022-2 (FLAb copy).

The target is the same throughout: PDVDLGDISGINAS, from the HR2 region of SARS-CoV-2 spike.

Each scFv is VH, three GGGGS repeats, VL, as in the parent Ab-14, and differs from it in the CDRs of the heavy chain only.
VH: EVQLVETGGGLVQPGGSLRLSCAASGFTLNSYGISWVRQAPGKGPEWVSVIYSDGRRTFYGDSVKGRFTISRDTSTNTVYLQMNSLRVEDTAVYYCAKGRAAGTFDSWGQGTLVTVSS
VL: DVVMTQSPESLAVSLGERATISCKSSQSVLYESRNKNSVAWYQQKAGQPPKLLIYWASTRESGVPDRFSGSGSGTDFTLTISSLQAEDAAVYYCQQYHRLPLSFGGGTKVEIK

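Phage display of a naive human antibody library on the peptide gave the parent. The variants were designed computationally from a first round of random CDR variants and then made and measured. Their group label is 14H_En_Gen (En: ensemble of fine-tuned language models; Gen: genetic algorithm). The scFvs were displayed on barcoded MATa yeast, the peptide on MATalpha yeast. The frequency of each diploid, read from paired DNA barcodes, reflects how well the two displayed proteins bind. The ratio of observed to expected reads was calibrated, replicate by replicate, on BCL2-family standards whose Kd was known from biolayer interferometry. Each pool was mated in six replicate cultures.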

Each variant is given by its three heavy chain CDRs, as the data file delimits them; those of the parent are GFTLNSYGIS, VIYSDGRRTFYGDSVK, GRAAGTFDS. Scale: log10 of Kd in nM, estimated from mating counts; low values are strong binders. "nd" means that the variant was in the library but no mating with the target was seen in that replicate; the authors take this as a sign of poor binding, and no number exists. Three control strains display no target. For all heavy chain designs, 1% of the pairings with them gave a signal, with a median of 2.08 and one signal in twenty below 0.84, so weak values seen in few replicates may be background. The control count says in how many pairings with the empty strains this scFv gave a signal, with their mean in brackets.

CDR-H1 | CDR-H2 | CDR-H3 | log10 Kd (nM) by replicate | control signals
GFDLNEYGIS | VIYADGMRTAYSDDVK | GNNAGTFDL | -0.31 -0.15 0.02 -0.02 0.20 -0.30 | 0/18
GFDLNEYGIS | VIYADGVRTYYADSVK | GGNAGTFDV | -0.56 -0.59 -0.54 -0.81 -0.77 -0.33 | 1/18 (3.95)
GFDLNEYGIS | VIYADGKRTAYADSVK | GTVAGTFDI | -0.23 -0.34 -0.46 -0.55 -0.51 -0.24 | 0/18
GFDLDEYGIS | VIYADGQRTAYANSVK | GEVAGTFDV | -0.24 -0.84 -0.56 -0.15 -0.87 -0.38 | 1/18 (0.60)
GFDLNEYGIS | VIYADGMRKAYADDVK | GQNAGTFDV | -0.60 -0.87 -0.83 -1.14 -0.65 -0.85 | 0/18
GFDLDEYGIS | VIYADGMRTAYTDSVK | GETAGTFDT | 0.09 -0.22 -0.42 -0.43 0.14 0.34 | 0/18
GFDLNEYGIS | VIYADGVRTAYADKVK | GETAGTFDV | -0.63 -0.44 -0.72 -0.37 -0.93 -0.74 | 0/18
GFDLDEYGIS | VIYADGMRTAYSDSVK | GENAGTFDI | -0.53 -0.48 -0.60 -0.32 -0.79 -0.67 | 0/18
GFDLNEYGIS | VIYADGRRTAYADDVK | GQNAGTFDI | 0.52 -0.35 -0.55 -0.39 -0.62 -0.59 | 0/18
GFDLNEYGIS | VIYADGKRTAYADKVK | GNVAGTFDL | 0.23 -0.37 -0.49 -0.41 -0.34 -0.38 | 0/18
GFDLNEYGIS | VIYADGMRSYYADSVK | GNVAGTFDQ | -0.03 -0.02 -0.25 -0.07 -0.28 -0.02 | 0/18
GFDLNEYGIS | VIYADGMRTFYADDVK | GNNAGTFDV | 1.36 -0.19 0.83 -0.51 0.90 0.64 | 0/18
GFDLNEYGIS | VIYADGRRTYYADSVK | GENAGTFDI | -0.36 -0.11 -0.06 -0.38 0.03 0.28 | 0/18
GFDLNEYGIS | VIYADGMRTFYADSVK | GNVAGTFDT | -0.33 -0.42 -0.77 -0.83 -0.88 -0.50 | 1/18 (1.20)
GFDLNEYGIS | VIYADGMRTVYADSVK | GNVAGTFDT | -0.39 -0.77 -0.50 -1.07 -0.44 -0.34 | 0/18
GFDLDEYGIS | VIYADGMRTFYADSVK | GNTAGTFDV | -0.70 -0.67 -0.71 -1.10 -0.78 -0.58 | 1/18 (1.31)
GFDLNEYGIS | VIYADGVRTAYSDSVK | GENAGTFDM | 0.65 0.15 0.16 -0.09 -0.15 0.14 | 0/18
GFDLDEYGIS | VIYADGQRTAYSDSVK | GQNAGTFDV | -0.60 -0.55 0.13 0.11 -0.85 0.06 | 0/18
GFDLDEYGIS | VIYADGQRTAYADSVK | GETAGTFDV | 0.03 -0.23 -0.58 -0.66 -0.15 -0.24 | 1/18 (2.49)
GFDLDEYGIS | VIYADGMRTAYADNVK | GETAGTFDI | 0.10 0.29 0.37 -0.05 0.60 1.37 | 0/18
GFDLNEYGIS | VIYADGVRTYYADSVK | GNNAGTFDV | -0.21 -0.43 -0.45 -0.12 -0.54 0.10 | 0/18
GFDLNEYGIS | VIYADGQRTAYSDSVK | GNVAGTFDT | -0.68 -0.71 -1.11 -0.78 -0.80 -0.60 | 0/18
GFDLDEYGIS | VIYADGMRTFYADSVK | GNVAGTFDL | 0.74 0.67 0.37 0.39 0.30 0.32 | 3/18 (1.38)
GFDLNEYGIS | VIYADGMRTAYSDSVK | GNVAGTFDM | -0.36 -0.52 -0.73 -0.64 -0.71 -0.71 | 0/18
GFDLDEYGIS | VIYADGMRTAYSDSVK | GENAGTFDV | nd 0.37 0.39 -0.80 nd 1.02 | 0/18
GFDLNEYGIS | VIYADGMRTAYSDSVK | GENAGTFVM | 2.35 2.08 2.25 3.73 2.68 3.00 | 3/18 (2.55)
GFDLNEYGIS | VIYADGQRTFYADDVK | GNVAGTFDV | -0.24 0.13 -0.31 -0.24 0.10 -0.13 | 0/18
GFDLNEYGIS | VIYADGVRKAYSDSVK | GNNAGTFDV | -0.15 -0.41 0.32 -0.28 -0.54 0.02 | 0/18
GFDLNEYGIS | VIYADGKRTAYADDVK | GKNAGTFDV | 0.12 -0.37 -0.50 -1.11 -0.95 -0.62 | 0/18
GFDLNEYGIS | VIYADGLRTAYADSVK | GGNAGTFDV | nd -0.53 -1.14 -2.16 -1.19 -0.98 | 0/18
GFDLNEYGIS | VIYADGMRTAYSDSVK | GTNAGTFDL | nd 1.62 nd nd nd 0.35 | 0/18
GFDLNEYGIS | VIYADGMRKAYADDVK | GEVAGTFDV | -0.14 -0.24 -0.41 -0.51 -0.11 -0.29 | 0/18
GFDLNEYGIS | VIYADGMRTAYADDVK | GSNAGTFDV | -0.35 -0.34 -0.69 -0.70 -0.46 -0.17 | 0/18
GFDLNEYGIS | VIYADGKRTYYADSVK | GEVAGTFDL | -0.52 -0.14 0.26 -0.54 0.30 -0.18 | 0/18
GFDLDEYGIS | VIYADGQRTAYADSVK | GETAGTFDQ | -0.47 0.11 -0.54 -0.53 0.04 -0.28 | 0/18
GFDLDEYGIS | VIYADGKRTAYSDSVK | GNEAGTFDV | 0.01 -0.08 -0.20 0.13 -0.08 0.11 | 0/18
GFDLDEYGIS | VIYADGVRTAYTDSVK | GNTAGTFDV | -0.06 -0.20 -0.32 -0.27 -0.02 0.37 | 0/18
GFDLNEYGIS | VIYADGMRTAYADSVK | GQVAGTFDT | 0.17 -0.30 -0.21 -0.26 -0.40 -0.66 | 0/18
GFDLNEYGIS | VIYADGMRTAYADSVK | GEVAGTFDM | -0.46 -0.75 -0.83 -1.20 -0.72 -0.63 | 0/18
GFDLNEYGIS | VIYADGMRTAYADSVK | GENAGTFDV | nd 0.11 -0.20 nd -0.51 -0.01 | 0/18
GFDLNEYGIS | VIYADGQRTAYTDSVK | GNVAGTFDQ | -0.24 -0.59 -0.71 -0.79 -0.79 -0.73 | 2/18 (1.90)
GFDLNEYGIS | VIYADGVRKAYADSVK | GENAGTFDL | -0.27 0.05 -0.65 -0.46 -0.78 0.29 | 0/18
GFDLNEYGIS | VIYADGLRTAYSDSVK | GQNAGTFDV | -0.15 -0.23 0.04 0.77 0.17 0.14 | 0/18
GFDLNEYGIS | VIYADGMRTAYSDKVK | GQNAGTFDV | -0.23 -0.61 -0.80 -0.35 -0.06 0.49 | 0/18

The range of this assay differs from that of the first round, and the authors advise against merging the two. The authors averaged sequences with at least three values out of six and counted those with two or fewer as poor binders.